Assay [1] addresses Poly [ADP-ribose] polymerase 2 (Homo sapiens, UniProt Q9UGN5).
Assay [2] deals with T1, Poly [ADP-ribose] polymerase tankyrase-1 (Homo sapiens, UniProt O95271).
T1 sequence (O95271 whole entry): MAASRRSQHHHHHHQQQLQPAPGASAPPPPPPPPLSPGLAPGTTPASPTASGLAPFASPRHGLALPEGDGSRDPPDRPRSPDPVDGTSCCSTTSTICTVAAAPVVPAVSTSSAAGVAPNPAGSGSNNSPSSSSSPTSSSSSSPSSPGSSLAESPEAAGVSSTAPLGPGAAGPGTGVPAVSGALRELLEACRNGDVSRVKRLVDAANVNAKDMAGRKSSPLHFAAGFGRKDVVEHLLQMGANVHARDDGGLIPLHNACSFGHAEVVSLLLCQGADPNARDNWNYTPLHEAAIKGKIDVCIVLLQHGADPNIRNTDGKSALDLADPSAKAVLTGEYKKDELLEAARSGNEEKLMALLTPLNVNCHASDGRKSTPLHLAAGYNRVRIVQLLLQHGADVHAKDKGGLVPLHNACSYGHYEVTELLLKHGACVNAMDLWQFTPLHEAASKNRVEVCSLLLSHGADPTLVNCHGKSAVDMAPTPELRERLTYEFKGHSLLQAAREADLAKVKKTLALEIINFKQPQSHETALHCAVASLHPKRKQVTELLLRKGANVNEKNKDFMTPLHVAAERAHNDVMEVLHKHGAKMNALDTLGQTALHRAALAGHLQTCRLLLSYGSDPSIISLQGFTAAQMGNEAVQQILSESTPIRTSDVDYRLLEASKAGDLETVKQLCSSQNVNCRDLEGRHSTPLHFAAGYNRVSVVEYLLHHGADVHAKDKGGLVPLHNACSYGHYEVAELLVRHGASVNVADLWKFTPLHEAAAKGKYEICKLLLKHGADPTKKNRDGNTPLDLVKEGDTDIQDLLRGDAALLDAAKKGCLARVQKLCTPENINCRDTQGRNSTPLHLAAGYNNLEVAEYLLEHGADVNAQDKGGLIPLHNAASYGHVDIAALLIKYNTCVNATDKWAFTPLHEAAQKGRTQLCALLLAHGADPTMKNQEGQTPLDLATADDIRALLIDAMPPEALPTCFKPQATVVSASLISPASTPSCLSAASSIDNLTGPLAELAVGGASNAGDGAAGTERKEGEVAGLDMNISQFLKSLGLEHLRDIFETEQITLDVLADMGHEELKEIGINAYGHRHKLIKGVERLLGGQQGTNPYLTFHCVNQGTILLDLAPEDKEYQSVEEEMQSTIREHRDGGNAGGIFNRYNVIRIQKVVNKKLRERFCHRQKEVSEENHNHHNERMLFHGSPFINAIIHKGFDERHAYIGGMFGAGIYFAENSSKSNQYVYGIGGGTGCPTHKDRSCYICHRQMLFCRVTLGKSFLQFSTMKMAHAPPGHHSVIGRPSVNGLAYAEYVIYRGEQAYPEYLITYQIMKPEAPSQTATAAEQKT

Amino acid sequences for entries named in this document (tags omitted). A change or cut given only in a name is not applied to a line headed by its entry.
UniProt Q9UGN5: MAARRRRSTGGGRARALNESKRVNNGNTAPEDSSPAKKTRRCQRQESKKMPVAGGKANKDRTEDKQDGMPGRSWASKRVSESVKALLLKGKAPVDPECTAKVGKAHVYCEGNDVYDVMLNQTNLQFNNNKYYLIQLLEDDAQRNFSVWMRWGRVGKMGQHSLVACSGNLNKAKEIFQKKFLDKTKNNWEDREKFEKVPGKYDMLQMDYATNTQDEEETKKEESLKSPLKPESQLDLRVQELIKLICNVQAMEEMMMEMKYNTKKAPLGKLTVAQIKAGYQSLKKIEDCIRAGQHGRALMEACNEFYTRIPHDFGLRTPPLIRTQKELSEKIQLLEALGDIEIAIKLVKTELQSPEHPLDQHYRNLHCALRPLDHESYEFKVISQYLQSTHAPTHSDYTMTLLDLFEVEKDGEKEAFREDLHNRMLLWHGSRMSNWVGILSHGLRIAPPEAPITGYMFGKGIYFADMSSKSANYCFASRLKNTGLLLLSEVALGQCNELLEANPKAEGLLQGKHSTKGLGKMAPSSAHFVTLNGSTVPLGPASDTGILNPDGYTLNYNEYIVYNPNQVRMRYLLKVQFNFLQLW
UniProt P09874, whole entry: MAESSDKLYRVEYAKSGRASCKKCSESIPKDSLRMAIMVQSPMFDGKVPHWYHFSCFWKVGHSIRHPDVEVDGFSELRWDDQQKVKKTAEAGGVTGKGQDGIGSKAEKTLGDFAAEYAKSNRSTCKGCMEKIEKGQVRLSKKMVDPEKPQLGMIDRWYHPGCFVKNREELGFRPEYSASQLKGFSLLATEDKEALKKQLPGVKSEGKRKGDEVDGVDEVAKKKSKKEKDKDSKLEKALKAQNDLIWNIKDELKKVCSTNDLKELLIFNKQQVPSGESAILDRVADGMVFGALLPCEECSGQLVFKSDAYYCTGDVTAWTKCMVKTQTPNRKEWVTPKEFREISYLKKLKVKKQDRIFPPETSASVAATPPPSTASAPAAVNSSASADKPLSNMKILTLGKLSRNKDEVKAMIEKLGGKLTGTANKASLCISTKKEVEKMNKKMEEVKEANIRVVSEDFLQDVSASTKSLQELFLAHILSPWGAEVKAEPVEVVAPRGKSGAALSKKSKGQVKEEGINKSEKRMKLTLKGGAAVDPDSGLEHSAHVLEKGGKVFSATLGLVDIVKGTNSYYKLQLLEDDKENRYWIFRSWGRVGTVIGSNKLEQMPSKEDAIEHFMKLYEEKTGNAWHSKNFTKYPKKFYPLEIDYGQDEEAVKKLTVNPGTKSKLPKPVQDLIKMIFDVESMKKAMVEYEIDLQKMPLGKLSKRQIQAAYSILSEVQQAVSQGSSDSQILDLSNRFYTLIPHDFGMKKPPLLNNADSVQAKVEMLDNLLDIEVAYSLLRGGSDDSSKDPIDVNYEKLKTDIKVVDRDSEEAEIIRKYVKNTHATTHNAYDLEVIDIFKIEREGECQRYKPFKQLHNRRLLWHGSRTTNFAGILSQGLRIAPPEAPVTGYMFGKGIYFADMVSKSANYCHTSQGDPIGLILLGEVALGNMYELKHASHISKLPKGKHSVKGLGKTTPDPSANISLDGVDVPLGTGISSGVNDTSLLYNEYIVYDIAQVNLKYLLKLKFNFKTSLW

The target of assay [3] is Poly [ADP-ribose] polymerase 1 (Homo sapiens, UniProt P09874).
For assay [4], the system named is HT-29. Briefly: cells. The conditions noted are these: Homo sapiens, HT-29, read-out: INH.
Assay [5] relates to HT-29. Briefly: cells. Particulars: Homo sapiens, HT-29, read-out: INH. The source holds these as a separate data set.
Assay [6] has as its system HT-29. Briefly: cells. Particulars: Homo sapiens, HT-29, read-out: INH. This is another data set of the same source.
Assay [7] has as its target Poly [ADP-ribose] polymerase tankyrase-2 (Homo sapiens, UniProt Q9H2K2). Briefly: biochemical.

The structures appear in SMILES notation. pIC50: −log10 of the molar value. Bounds are passed on as bounds.

By pIC50 is commonly meant the negative decadic logarithm of the IC50, by convention in mol/L. Read a low pIC50 as a high IC50. On to `O=c1[nH]c(-c2ccc([N+](=O)[O-])cc2)nc2ccccc12`, for which the pIC50 was 5.69 in assay [1], 5.96 in assay [2], less than 5.00 in assay [3] and 6.59 in assay [7]. For the same compound, the inhibition at 100 µM in the assay on HT-29 [4] was determined as 0%. In the assay on HT-29 [5], the inhibition at 10 µM amounted to 0%. Besides, the inhibition at 1 µM with HT-29 [6] came to 0%.

Take `COc1cccc2c(O)nc(-c3ccc(C(F)(F)F)cc3)nc12`: the pIC50 in assay [1] is 6.24; in assay [2], 7.14; in assay [3], less than 4.00; in assay [7], 7.06. Also, the inhibition at 100 µM in the assay on HT-29 [4] is 0%. Moreover, the inhibition at 10 µM in the assay on HT-29 [5] amounted to 0%. Besides, the inhibition at 1 µM in the assay with HT-29 [6] is 0%.

For `COc1cccc2c(O)nc(-c3ccc([N+](=O)[O-])cc3)nc12`, the negative-log IC50 (pIC50) is 6.03 in assay [1], 6.06 in assay [2], less than 5.00 in assay [3] and 6.06 in assay [7]. In addition, the inhibition at 100 µM in the assay with HT-29 [4] is 0%. The inhibition at 10 µM in the assay on HT-29 [5] came to 0%. Moreover, the inhibition at 1 µM in the assay with HT-29 [6] came out at 0%.

Turning to `COc1cccc2c(O)nc(-c3ccccc3)nc12`, the pIC50 in assay [1] was 5.81; in assay [2], 6.32; in assay [3], less than 5.00; in assay [7], 5.99. The inhibition at 100 µM with HT-29 [4] is 19%. Further, the inhibition at 10 µM with HT-29 [5] came out at 0%. Besides, the inhibition at 1 µM with HT-29 [6] stood at 0%.

Take `Oc1nc(-c2ccc(F)cc2)nc2ccccc12`: the pIC50 in assay [1] is 5.33; in assay [2], 6.11; in assay [3], less than 4.00; in assay [7], 5.96. For the same compound, the inhibition at 100 µM in the assay with HT-29 [4] turned out to be 1%. The inhibition at 10 µM in the assay with HT-29 [5] is 8%. In the assay on HT-29 [6], the inhibition at 1 µM was 5%.

In the case of `O=c1[nH]c(-c2ccc(Br)cc2)nc2ccccc12`, the pIC50 was less than 4.00 in assay [1], 6.65 in assay [2], less than 4.00 in assay [3] and 7.00 in assay [7]. In the assay with HT-29 [4], the inhibition at 100 µM was found to be 30%. Moreover, in the assay on HT-29 [5], the inhibition at 10 µM was found to be 15%. Further, the inhibition at 1 µM in the assay on HT-29 [6] is 1%.

With `O=c1[nH]c(-c2ccc(C(F)(F)F)cc2)nc2ccccc12`, the pIC50 in assay [1] was less than 5.00; in assay [2] it was 6.37; in assay [3] it was less than 4.00; in assay [7], 6.88. The inhibition at 100 µM in the assay with HT-29 [4] was 0%. Further, the inhibition at 10 µM with HT-29 [5] was found to be 0%. The inhibition at 1 µM in the assay with HT-29 [6] came out at 0%.

Turning to `COc1cccc2c(=O)[nH]c(-c3ccc(Cl)cc3)nc12`, the pIC50 in assay [1] was 5.22; in assay [2] it was 6.81; in assay [3], less than 5.00; in assay [7], 7.21. The inhibition at 100 µM with HT-29 [4] was determined as 0%. Further, the inhibition at 10 µM in the assay on HT-29 [5] is 0%. For the same compound, the inhibition at 1 µM in the assay with HT-29 [6] is 0%.

With `COc1cccc2c(=O)[nH]c(-c3ccc(F)cc3)nc12`, the pIC50 in assay [1] was 5.81; in assay [2], 6.52; in assay [3] it was less than 5.00; in assay [7], 6.34. For the same compound, the inhibition at 100 µM in the assay with HT-29 [4] was 0%. Besides, the inhibition at 10 µM with HT-29 [5] is 0%. Also, the inhibition at 1 µM in the assay with HT-29 [6] turned out to be 0%.

With `COc1cccc2c(=O)[nH]c(-c3ccc(Br)cc3)nc12`, the pIC50 is 6.59 in assay [1], 6.95 in assay [2], less than 4.00 in assay [3] and 6.97 in assay [7]. In addition, the inhibition at 100 µM in the assay on HT-29 [4] amounted to 0%. Further, the inhibition at 10 µM with HT-29 [5] is 0%. Also, the inhibition at 1 µM in the assay with HT-29 [6] worked out at 0%.
